For this assay, the target named is Tubulin alpha chain (Sus scrofa) (UniProt P02550). Description: The compound was evaluated in vitro in a tubulin polymerization assay, activity expressed as potency of compound relative to Paclitaxel. It counts as functional.

Protein sequences, listed by entry. Tags and fused reporters are not part of them.
UniProt P02550, whole entry, looked up: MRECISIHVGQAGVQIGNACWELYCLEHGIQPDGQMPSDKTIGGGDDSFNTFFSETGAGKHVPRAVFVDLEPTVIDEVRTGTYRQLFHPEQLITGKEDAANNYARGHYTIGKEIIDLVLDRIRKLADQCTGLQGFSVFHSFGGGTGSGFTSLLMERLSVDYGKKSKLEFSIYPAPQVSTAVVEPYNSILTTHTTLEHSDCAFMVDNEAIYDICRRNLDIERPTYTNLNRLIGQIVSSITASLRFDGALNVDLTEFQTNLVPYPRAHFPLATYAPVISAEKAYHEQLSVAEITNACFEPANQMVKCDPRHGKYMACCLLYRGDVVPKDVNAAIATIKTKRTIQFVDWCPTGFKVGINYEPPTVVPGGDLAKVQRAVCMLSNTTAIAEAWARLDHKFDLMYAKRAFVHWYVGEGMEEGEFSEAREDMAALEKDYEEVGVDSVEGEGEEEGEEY

On to `CC(=O)O[C@H]1C(=O)[C@@]2(C)[C@H]([C@H](OC(=O)c3ccccc3)[C@]3(O)C[C@H](OC(=O)[C@H](O)[C@@H](NC(=O)c4ccccc4)c4ccccc4)C(C)=C1C3(C)C)[C@]1(OC(C)=O)CO[C@@H]1C[C@@H]2O` [PACLITAXEL], for which the Ratio was 1.

Values taken from ChEMBL document CHEMBL1152107, “Structure-activity relationships study at the 3-N position of paclitaxel-part 1: Synthesis and biological evaluation of the 3-(t)-butylaminocarbonyloxy bearing paclitaxel analogs” (Bioorg Med Chem Lett, 1997).
